Patent US4485039A, “Synthetic analogues of α-melanotropin” (University Patents, Inc., priority 1982, dated 1984)

System: chymotrypsin
Assay: enzymatic stability on exposure to chymotrypsin
Conditions: chymotrypsin 0.1 units/ml

## [Half-Cys^4, half-Cys^10 ]-α-MSH
  period the compound remained stable: at least 4 hours
24 hours
  state after 24 hours: completely inactivated
